# Measured values taken from PubChem BioAssay AID901 (National Center for Advancing Translational Sciences (NCATS), 2007).
# Protein sequences, listed by entry. Tags and fused reporters are not part of them. Lines headed by an entry give the natural chain unless they say otherwise; changes in a name come on top.
# UniProt P97697: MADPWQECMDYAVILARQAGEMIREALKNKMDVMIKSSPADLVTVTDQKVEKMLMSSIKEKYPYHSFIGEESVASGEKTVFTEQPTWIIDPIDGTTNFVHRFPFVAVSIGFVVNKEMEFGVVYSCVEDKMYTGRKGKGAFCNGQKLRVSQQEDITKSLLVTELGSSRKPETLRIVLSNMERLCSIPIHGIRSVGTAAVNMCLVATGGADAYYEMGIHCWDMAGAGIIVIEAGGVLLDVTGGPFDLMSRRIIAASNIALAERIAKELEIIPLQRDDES
# Only a part is listed here, and it is no random draw. Records with an inconclusive call do not appear. Activity calls are given as the source filed them. Calls follow the shape of the dose curve; as a rule, active = well fitted curve in the direction sought with a large enough effect in the signal ratio (not every such curve was filed as active); inconclusive = small, poorly fitted or top-dose-only effect, or a change in a side signal; inactive = no such curve, though single readings can be large or run the other way; the % refers to the signal ratio.
# Target: Inositol monophosphatase 1 (Rattus norvegicus) (UniProt P97697)
# Test: qHTS Assay for Identifying the Cell-Membrane Permeable IMPase Inhibitors;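 also: plate controls were DMSO basal wells for no effect and reference inhibitor wells for full effect; higher means more IMPase inhibition seen as more IP1 and lower FRET ratio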
# Conditions: CHO-M1 cells, HTRF TR-FRET ratio; at 46.1 µM (top of the series) unless noted
# Source text: NCGC IMPase Assay Overview
# Lithium has been widely used for the treatment of bipolar disorder. But lithium has a narrow therapeutic index and it can cause side effects such as thirst, weight gain, tremor, polyuria and memory problems. Although the mechanism for lithium action in treatment of bipolar disorder is still not fully understood, inhibition of inositol monophosphatase (IMPase) and the subsequent depletion of the inositol pool in living cells have been implicated as the primary therapeutic benefit of lithium therapy. Therefore, a selective IMPase inhibitor with reduced side effects might be a good drug candidate to replace lithium for the treatment of bipolar disorder. Several IMPase inhibitors have been discovered previously. However, they are not suitable for therapeutic use because of their poor cell membrane penetrability or oral bioavailability; the development of new cell-permeable IMPase inhibitors is needed.
# IMPase catalyzes the hydrolysis of inositol-1-phosphate (IP1) to release free inositol. Binding of an agonist to a Gq coupled GPCR results in the activation of PLC, which hydrolyzes the PIP2 to form inositol-1,4,5-trisphosphate (IP3) and diacyl glycerol (DAG). While DAG activates protein kinase C (PKC), IP3 triggers the elevation of intracellular free Ca2+. The IP3 is very rapidly inactivated by hydrolysis to IP2, IP1 and then inositol by a series of enzymes including IMPase. Free inositols are used for synthesis of PI and thus start another inositol cycle.
# To identify new cell-permeable IMPase inhibitors, we developed a cell-based IMPase assay in which the cytosolic IP1 is measured by a time-resolved fluorescence resonance energy transfer (TR-FRET) assay. In this assay, an IP1 specific antibody is used to detect the labeled IP1 tracer. When the cell lysate contains the elevated IP1 due to the inhibition of IMPase, the TR-FRET between the labeled antibody and IP1 tracer is disrupted resulting in a reduction in the total signal. Since the TR-FRET is used, this cell-based assay is a homogenous assay without cell wash and medium change that is suitable for assay miniaturization and HTS.
# NCGC IMPase Assay Protocol Summary
# A Chinese hamster ovary (CHO) cell line stably expressing the M1 receptor (CHO-M1) was obtained from ATCC and maintained in F-12 Kaighn's media (Invitrogen, Carlsbad, CA, 21127) supplemented with 10 % FBS, 100 units/ml penicillin, 100 ug/ml streptomycin and 250 ug/ml geneticin at 37C, 5% CO2 in a humidified atmosphere. Before the assay, aliquots of cells were frozen and stored at -135C. The assay was performed in 1536-well format. Data are reported for both the ratio of the two emission wavelengths, and also for the component 'donor' channel, Em2=620. […] AC50 values were determined from concentration-response data modeled with the standard Hill equation.
# IMPase 1536-well assay protocol:
# (1) Plate 4 ul/well (2000 cells) of cell suspension from frozen CHO-M1 Cells in white, tissue culture treated 1536-well plates that are cultured at 37C, 5 % CO2 for 16 to 30 hours.
# (2) Add 23 nl/well of compound in DMSO solution. The final titration for each compound was between 0.6 nM and 46 uM.
# (3) Add 1 ul of carbachol (50 uM in stimulation buffer containing10mM HEPES, 1mM CaCl2, 0.5 mM MgCl2, 4.2 mM KCl, 146 mM NaCl, 5.5 mM glucose, 50mM LiCl, pH 7.4.
# (4) Incubation at 37C, 5 % CO2 for 30 min.
# (5) Add 1 ul/well of d2-conjugated IP1 (d2-IP1) and 1 ul/well of Eu+ cryptate conjugated anti-IP1 antibody (Eu+-Ab) prepared in the cell lysis buffer, both from the IP-One kit (Cisbio, MA).
# (6) Incubate at room temperature for 10 minutes.
# (7) Detect the assay plate (Ex = 320, Em1 =665 and Em2 620) in a ViewLux plate reader.
# inositol monophosphatase, IMPase, IMPase inhibitor, lithium, bipolar disorder, IP-One, HTRF, qHTS, NIH roadmap, NCGC
# Note: In the gene ID and protein GI references for this assay, rat IMPase is referenced instead of hampster as hamster accession numbers were not available.
row,Structure (SMILES),inhibition (IP1 accumulation)
1,O=P1(Nc2ccccn2)COc2ccccc2OC1,inactive: 20%
2,CN(CCCl)Cc1cc(Cl)c(NC2=NCCN2)c(Cl)c1,inactive: 6.19%
3,Clc1n[nH]nc1-c1nn[nH][15n]1,inactive: -6.92%
4,O=P1(Nc2ncccn2)COc2ccccc2OC1,inactive: -11.4%
5,O=P1(Nc2ccc(Br)cn2)COc2ccccc2OC1,inactive: -1.27%
6,Cc1ccc(OCC(=O)OC2CN3CCC2CC3)cc1 (stereo not drawn),inactive: 0.931% [at 1.84 µM]
7,Cc1nn(-c2ccccc2)c2c1P(=O)(N1CCOCC1)N(C)C(c1ccccc1)=N2 (stereo not drawn),inactive: -3.95%
8,NC(=O)Nc1ccc([As](=O)(O)O)cc1,inactive: 3.69% [at 20.6 µM]
9,CCOP1(=S)c2c(C)nn(CCC#N)c2N=C(c2ccc(F)cc2)N1C (stereo not drawn),inactive: 4.75%
10,O=[N+]([O-])c1ccc2c(c1)nnn2O,inactive: -4.85%
11,O=P(Nc1nccs1)(c1ccccc1)c1nc2ccccc2s1 (stereo not drawn),inactive: 16.3%
12,CCOP1(=S)c2c(C)nn(CCC#N)c2N=C(c2ccccc2F)N1C (stereo not drawn),inactive: 0.846%
13,Cc1ccc(NCCc2c([N+](=O)[O-])cc([N+](=O)[O-])cc2[N+](=O)[O-])cc1,inactive: 17.8%
14,CN(C(=O)Cc1ccc(Cl)c(Cl)c1)[C@@H]1CC[C@@]2(CCCO2)C[C@H]1N1CCCC1,inactive: 3.94%
15,Cc1cccc(OCC(=O)OC2CN3CCC2CC3)c1 (stereo not drawn),inactive: 9.31%
16,Cc1c2c(nc3ccccc13)SC(C(Cl)Cl)C2 (stereo not drawn),inactive: -12.9%
17,O=C(OC1CN2CCC1CC2)C12CC3CC(CC(C3)C1)C2 (stereo not drawn),inactive: 20.1%
18,CCN(CC)C(=S)SC(NC=O)C(Cl)(Cl)Cl (stereo not drawn),inactive: -3.89%
19,Cc1ccc2nc3c(c(C)c2c1)CC(C(Cl)Cl)S3 (stereo not drawn),inactive: -9.81%
20,Cc1cc(SC(NC(=O)c2ccccc2)C(Cl)(Cl)Cl)nc(C(C)C)n1 (stereo not drawn),inactive: -5.71%
21,CCC(C)N(CC(C)C)C(=S)SC(NC(C)=O)C(Cl)(Cl)Cl (stereo not drawn),inactive: -6.23%
22,COP1(=S)c2c(C)nn(CCC#N)c2N=C(c2ccc(F)cc2)N1C (stereo not drawn),inactive: -1.12%

row,Structure (SMILES),inhibition (IP1 accumulation)
1,O=C(COc1ccccc1)OC1CN2CCC1CC2 (stereo not drawn),inactive: 16.4%
2,CC1CCN(C(=O)Oc2c(Cl)cc(Cl)c3cccnc23)CC1,inactive: 6.29%
3,CCc1nc2c(n1)c1c(non1O)c1c2no[n+]1[O-],inactive: 14.5%
4,CC(=O)N1C2C3N(C(C)=O)C1C1N(C(C)=O)C(C(N1C(C)=O)N3C(C)=O)N2C(C)=O,inactive: 2.43%
5,O=[N+]([O-])c1cccc2n[nH]nc12,inactive: -1.23%
6,CN(C(=O)Cc1ccccc1)[C@@H]1CC[C@@]2(CCCO2)C[C@H]1N1CCCC1,inactive: 0.521%
7,CCN(N=Nc1nonc1N)c1nonc1N,inactive: 2.5%
8,CCOP(=O)(Nc1ccccc1)OCC,inactive: 0.428%
9,Cc1cc(SC(NC(=O)c2ccc(F)cc2)C(Cl)(Cl)Cl)ncn1 (stereo not drawn),inactive: 2.62%
10,Cc1c2non([O-])c-2c(C)[n+](=O)[n+]1[O-],inactive: 12.8%
11,Oc1ccccc1CNc1ccccn1,inactive: 7.42%
12,CC(C)CC(=O)NC(Sc1ccc(Cl)cc1)C(Cl)(Cl)Cl (stereo not drawn),inactive: 5.71%
13,CN1CCCC(OC(=O)C(c2ccccc2)c2ccccc2)C1 (stereo not drawn),inactive: 13.5%
14,O=P1(Nc2nc3ccc(Cl)cc3s2)COc2ccccc2O1 (stereo not drawn),inactive: 4.89%
15,CCC(=O)N1C2C3N(C(=O)CC)C1C1N(C(=O)CC)C(C(N1C(=O)CC)N3C(=O)CC)N2C(=O)CC,inactive: -2.05%
16,COC(=O)c1cc2c(s1)N=C(c1ccccc1)N(C)P2(=O)N1CCOCC1 (stereo not drawn),inactive: 3.88%
17,CCOC(=O)NC(Sc1ccccc1)C(Cl)(Cl)Cl (stereo not drawn),inactive: 5.18%
18,O=C(OC1CN2CCC1CC2)c1cccc(Cl)c1 (stereo not drawn),inactive: 15%
19,O=P(Nc1nccs1)(c1ccccc1)c1ccccc1,inactive: -2.34%
20,CC(C)C(=O)NC(Sc1ccccc1)C(Cl)(Cl)Cl (stereo not drawn),inactive: -4.67%
21,c1nnnn1CCn1cnnn1,inactive: -3.64%
